Test results from publication PMC6318807 (ACS chemical neuroscience, 2018).

The chains behind the UniProt entries cited, without tags or fusion partners. Where a name states a change or a piece, a line headed by the entry shows the natural chain unless it says otherwise.
UniProt P43116: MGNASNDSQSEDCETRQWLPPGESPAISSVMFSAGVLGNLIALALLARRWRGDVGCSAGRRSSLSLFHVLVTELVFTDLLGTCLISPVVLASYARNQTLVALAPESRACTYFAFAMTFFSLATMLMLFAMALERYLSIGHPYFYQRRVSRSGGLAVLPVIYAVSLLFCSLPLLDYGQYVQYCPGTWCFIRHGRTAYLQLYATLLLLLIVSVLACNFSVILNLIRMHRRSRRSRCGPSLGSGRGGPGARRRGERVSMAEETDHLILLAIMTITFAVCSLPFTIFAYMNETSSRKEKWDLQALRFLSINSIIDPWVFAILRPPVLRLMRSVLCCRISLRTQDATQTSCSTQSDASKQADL

Target: EP2 receptor (Homo sapiens, UniProt P43116)
Assay: TR-FRET cAMP assay in C6G-EP2 cells
Type: cell-based

With `CCCCC[C@H](O)/C=C/[C@H]1[C@H](O)CC(=O)[C@@H]1C/C=C\CCCC(=O)O` [PGE2] the EC50 was 1.19 nM.
